Target: T1, Prostaglandin E synthase (Homo sapiens) (UniProt O14684)
T1 sequence (whole entry): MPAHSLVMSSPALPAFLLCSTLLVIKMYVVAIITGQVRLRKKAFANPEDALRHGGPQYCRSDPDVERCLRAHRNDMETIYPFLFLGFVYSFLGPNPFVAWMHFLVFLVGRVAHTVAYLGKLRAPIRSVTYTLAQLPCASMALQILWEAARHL
Assay: Inhibition of mPGES-1 in microsomes isolated from IL-1beta-stimulated human A549 cells at 10 uM using PGH2 as substrate preincubated for 15 mins followed by substrate addition measured after 1 min by RP-HPLC method relative to control
Assay type: cell-free
Outline: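 mPGES-1 source: microsomes of A549 cells stimulated 48 h with IL-1β (1 ng/ml), sonicated, spun 10,000×g 10 min then 174,000×g 1 h at 4 °C. Diluted in 0.1 M potassium phosphate pH 7.4 with 2.5 mM glutathione. Compound or DMSO vehicle added 15 min at 4 °C, then 20 µM PGH2 for 1 min at 4 °C. Stopped with FeCl2/citric acid plus 11β-PGE2. PGE2 measured by solid-phase extraction and RP-HPLC.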

## O=[N+]([O-])c1nonc1-c1nonc1[N+](=O)[O-]
  inhibition: 20%

— ChEMBL document CHEMBL4041473, “Identification of novel microsomal prostaglandin E2 synthase-1 (mPGES-1) lead inhibitors from Fragment Virtual Screening” (Eur J Med Chem, 2017)
